System: NC[C@H](F)CC(=O)O
Conditions: Sus scrofa

Q: How did the Km turn out when “4-aminobutyrate aminotransferase, mitochondrial (Sus scrofa), P80147” was run?
A: 49 µM
